scFv variants of Ab-14 (light chain) against a SARS-CoV-2 spike peptide

Data: MIT Lincoln Laboratory AlphaSeq set, Li et al. 2023, doi:10.1038/s41467-023-39022-2, as distributed in FLAb.

Target peptide (SARS-CoV-2 spike, HR2 region): PDVDLGDISGINAS

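The parent was found by panning a naive human phage display library on the peptide. These sequences belong to a second round, designed from the earlier measurements on random variants of the parent. Several design methods are mixed in this list. The assay is AlphaSeq: two haploid yeast populations carry antibody and antigen on their surface. Mating (16 h, 30 °C) was followed by selection of diploids and sequencing of their barcodes. A regression on co-assayed BCL2-family reference pairs converts the normalised counts of each replicate to an apparent Kd. Mating was done six times.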

Ab-14 is the parent antibody, in scFv form: VH, then a (GGGGS)3 linker, then VL. The heavy chain is unchanged in all variants.
VH: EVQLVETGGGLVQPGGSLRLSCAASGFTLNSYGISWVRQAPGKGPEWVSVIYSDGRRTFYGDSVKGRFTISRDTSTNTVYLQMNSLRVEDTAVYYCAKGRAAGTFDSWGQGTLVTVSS
VL: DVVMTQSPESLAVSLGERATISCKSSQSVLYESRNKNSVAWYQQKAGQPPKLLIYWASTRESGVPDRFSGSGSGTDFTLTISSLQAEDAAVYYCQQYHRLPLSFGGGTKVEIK

Variants are written as CDR1, CDR2 and CDR3 of the light chain (limits as in the source). Parent: KSSQSVLYESRNKNSVA, WASTRES, QQYHRLPLS. This list holds designs with at most six substitutions. The read-out is the apparent dissociation constant on a log10 scale (nM): the lower, the stronger. A pair that was not seen in that replicate is written "ND"; this usually means weak binding, but a binder can also be missed. A sequence measured in both rounds can read differently, since the two assays cover different ranges. The authors' rule: three or more of the six replicates give a measured affinity, fewer mean a poor binder. As a blank, each scFv also met three strains without target: over all light chain designs, 4% of these pairings were detected, typically at 2.64 and seldom below 1.59. Of ten entries with the parent sequence, four were seen in most replicates (averages 0.34 to 2.37), three in one and three in none, so single entries are noisy.

The variant KHSQSVLYESRNKNNVA / EASTRES / QQYHRLPLS showed 0.46, 0.33, 0.36, 0.05, 0.34, 0.66.
The variant KLSQSYLYESRNKNSVA / NASTRES / QCYHRLPLS showed 1.12, 0.78, 0.67, 0.85, 0.66, 1.31.
The variant KVSQSVLYESRNKNAVA / AASTRES / QQYHRLPLS showed ND, ND, -0.81, -0.74, -0.82, -0.71.
The variant KLPQSVLYESRNKNSVA / AASTRES / QQYHRLPLS showed -0.11, -0.23, -0.37, -0.44, -0.36, -0.12.
The variant KLSGSVLYESRNKNSVA / GASTRLS / QQYHRLPLS showed -0.13, -0.37, -0.40, -0.28, -0.24, -0.29.
The variant KSSISYLIESMNKNSVA / EASTRES / QQYHRLPLS showed ND, 1.66, 1.68, 1.03, 1.36, 1.62.
The variant KSSQSVPYESRNKNSVA / WATTRES / QQYYRLPNS showed ND, ND, ND, ND, ND, ND.
The variant KLSQSVLYEDRNKNSVA / NASQRES / QDYHRLPLS showed 0.10, 0.23, -0.06, -0.22, -0.14, 0.24.
The variant KSGQSRLGESRTDNSVA / WASKRES / QQYHRLPLS showed -0.46, ND, 1.33, ND, 1.21, 1.46.
The variant KLQQSELYESRNKNSVA / NASKRMS / QQYHRLPLS showed 0.26, 0.66, 0.72, 0.37, 0.42, 0.47.
The variant KLPQSVGYESRNKNSVA / EASTRES / QQYHRLPLS showed 0.12, -0.07, 0.08, -0.04, -0.11, 0.22.
The variant KISQSVLYESRNKNSVA / AASTRES / QGYHRLPLS showed 2.02, 1.95, 1.16, 1.71, 1.15, 2.29.
The variant KSLWSVLYESGNKNSVA / HASTRED / QQYHRLPLS showed 0.17, 0.70, 0.15, 0.72, 0.40, 0.21.
The variant KSSQSVLYESRNKNSVA / DGSTRES / QQYHRLALF showed ND, 2.32, ND, 1.94, 4.02, 1.68.
The variant KLSQSELYESRNKNSVA / HASTRCS / QQYHRLPLS showed 0.30, 0.12, 0.31, 0.09, 0.07, 0.21.
The variant KLPQSDLYESRNKNSVA / HASTRES / QQYHRLPLS showed -0.07, -0.23, -0.26, -0.22, -0.26, -0.21.
The variant KVSQSVLYESRNKNSVA / EASTREM / QQYHRLPLS showed -0.04, -0.39, -0.44, -0.48, -0.38, -0.32.
The variant KSSQSVLYESRNYNSVA / FGSTRAS / QQYHRLPLS showed 0.68, 0.24, 0.03, -0.27, -0.03, 0.36.
The variant KLSQSWLYESRNTNSVA / NASQRES / QQYHRLPLS showed 0.29, 0.07, -0.02, -0.13, 0.01, 0.30.
The variant KIQQSVLYESRNKNNVA / HASTRED / QQYHRLPLS showed -0.30, -0.13, -0.33, -0.18, -0.18, -0.08.
The variant KVSQSVPYESRNKNSVA / QASTRES / QQYHRLPLS showed 0.29, -0.10, 0.05, -0.12, -0.27, 0.15.
The variant KVSQSHLYESRNKNAVA / NASTRES / QQYHRLPLS showed 0.04, -0.15, 0.01, -0.06, -0.13, 0.04.
The variant KSSQLELYESRQKNSVA / NASYRED / QQYHRLPLS showed 0.13, 0.01, 0.05, 0.07, 0.00, 0.16.
The variant KLSQSQLYESRNKNSVA / DASTRES / QQYHRLPLS showed -0.38, -0.69, -0.79, -0.74, -0.68, -0.35.
The variant KSNQSVLYESRNYTSVA / WASTRES / QQYHRLPLS showed ND, ND, ND, 2.59, ND, ND.
The variant KSSQSWLYESTNKNSVA / SVSTRES / QQYHRLPLS showed 0.12, 0.22, -0.02, 0.05, 0.07, 0.31.
The variant HVSPSVLYESRNKNSVA / DASTRES / QQYHRLPLS showed -0.18, -0.41, -0.45, -0.61, -0.61, -0.43.
The variant KSSESYLYESRNTNSVA / EASTRES / QQYHRLPLS showed 0.44, 0.35, 0.05, 0.17, 0.11, 0.40.
The variant KQSISYLEESRNKNSVA / EASTRES / QQYHRLPLS showed 1.05, 0.89, 0.98, 1.48, 1.03, 1.89.
The variant HSSPSVEYESRNKNSVA / NASVRES / QQYHRLPLS showed -0.09, -0.03, -0.01, -0.20, 0.03, 0.02.
The variant KFSQSVLYESRNFNSVA / NASTRES / QQYHRLPLS showed -0.13, 0.00, -0.15, -0.47, -0.22, -0.13.
The variant KSSQSVLYESLNANSVA / WASTRER / QQYHDLPLS showed ND, ND, 2.79, 3.25, 3.27, 3.01.
The variant KNSQSVLYESTNKNSVA / QASTRES / QQYFRNPLS showed ND, ND, 1.76, ND, 2.56, 1.99.
The variant KYFQPVLYESRNKNSVA / WALTRES / QQYHRLPLS showed ND, ND, ND, ND, 2.93, ND.
The variant KAEGSWLYESRNKNSVA / NASMRES / QQYHRLPLS showed -0.52, -0.41, -0.76, -0.88, -0.75, -0.47.
The variant KVMQSMLYESRNKNSVA / HASTREQ / QQYHRLPLQ showed 0.01, 0.06, -0.16, -0.11, -0.04, 0.12.
The variant KSSQSVLYESRNKNSVA / EASTRES / QDYHRLPLS showed 0.45, 0.32, 0.05, -0.10, 0.04, 0.22.
The variant KSSQSVLFERRNKNSVA / WVSTRES / QQYHYLPLS showed ND, ND, ND, ND, ND, ND.
The variant KLSQGVNYESRNKNSVA / GASTRES / QQYHRLPLS showed 0.24, -0.05, -0.15, -0.21, -0.24, -0.02.
The variant KSSQSVLYERLNKNSVA / WASTRES / QQYHRLPLS showed 1.52, 1.88, 1.11, 1.46, 2.78, ND.
The variant KLSQSELYESRNKNSVA / NASTRES / QQYHRLPLM showed -0.13, 0.13, -0.40, -0.48, -0.33, -0.27.
The variant KSSPSVLYESHQKNSVA / NASTRMS / QQYHRLPLS showed 0.10, -0.08, -0.23, -0.37, -0.08, 0.13.
The variant KLSQSQLYESRMKNSVA / NASTRMS / QQYHRLPLS showed 0.05, -0.07, -0.07, 0.02, -0.28, 0.06.
The variant KSSQSQLYESRNKNSVA / HAGKRES / QQYHILPLS showed 1.51, 1.68, 1.55, 1.42, 1.80, 2.17.
The variant KLSQSYLYESRMKNSVA / NASTRES / QQYHRLPLS showed 0.82, 0.95, 0.43, 0.43, 0.34, 0.75.
The variant KSDQSVLYESRHKNSVA / WASTREL / QQYHRLPLS showed 1.16, ND, ND, ND, ND, 2.00.
The variant KSGQGVLYESRNKNSVA / GRSTRES / QQYHRLPLS showed 1.03, 0.67, 0.66, 0.69, 0.56, 1.34.
The variant KLSGSMLYESRNKNSVA / DASQRES / QQYHRLPLS showed -0.40, -0.33, -0.73, -0.77, -0.59, -0.54.

Top 7 of the variants detected in all replicates, tightest first:

Variant KAEGSWLYESRNKNSVA / NASMRES / QQYHRLPLS showed -0.52, -0.41, -0.76, -0.88, -0.75, -0.47.
Variant KLSQSQLYESRNKNSVA / DASTRES / QQYHRLPLS showed -0.38, -0.69, -0.79, -0.74, -0.68, -0.35.
Variant KLSGSMLYESRNKNSVA / DASQRES / QQYHRLPLS showed -0.40, -0.33, -0.73, -0.77, -0.59, -0.54.
Variant HVSPSVLYESRNKNSVA / DASTRES / QQYHRLPLS showed -0.18, -0.41, -0.45, -0.61, -0.61, -0.43.
Variant KVSQSVLYESRNKNSVA / EASTREM / QQYHRLPLS showed -0.04, -0.39, -0.44, -0.48, -0.38, -0.32.
Variant KLSGSVLYESRNKNSVA / GASTRLS / QQYHRLPLS showed -0.13, -0.37, -0.40, -0.28, -0.24, -0.29.
Variant KLPQSVLYESRNKNSVA / AASTRES / QQYHRLPLS showed -0.11, -0.23, -0.37, -0.44, -0.36, -0.12.